In article PMC8877905, “Novel Cocrystals of Vonoprazan: Machine Learning-Assisted Discovery” (Pharmaceutics, 2022):

Test: Equilibrium solubility in pH 1.2 and pH 6.8 solutions, 37 °C, 24 h, HPLC
Assay type: physicochemical
Settings: for Solubility in pH 1.2 buffer, Concentration: Figure 7a; for Solubility in pH 6.8 buffer, Concentration: Figure 7b; for Equilibrium Solubility after 24 h in pH 6.8: pH 6.8 solution, 37 °C, VPZ concentration by HPLC
Description: Excess amounts (~500 mg) of powder samples were added to 10 mL of pH 1.2 solution and 30 mL of pH 6.8 solution. […] After 24 h, aliquots of 2.5 mL were withdrawn from the suspension using a 0.45 μm nylon syringe filter and diluted immediately, followed by analysis of the VPZ concentration by HPLC.
The VPZ concentration was measured using an HPLC system (UFLC; Shimadzu) with a diode array detector and Shim-pack GIS-ODS C18 column (4.6 × 250 mm, 5 μm). HPLC analysis was conducted at a column oven temperature of 40 °C with a flow rate of 1 mL/min, and the mobile phase was a mixture of 20 mM ammonium formate in water (pH 3.05) and HPLC-grade MeOH with the addition of 10 mM triethylamine (TEA) (80% : 20%, v/v). The volume of the injected samples was 10 μL and the VPZ content was assayed spectrophotometrically at a wavelength of 245 nm.

Solubility in pH 1.2 buffer, Concentration	Solubility in pH 6.8 buffer, Concentration	Equilibrium Solubility after 24 h in pH 6.8	Substance
16,349 μg/mL	1,846 μg/mL	1.85 ±0.31 mg/mL	Vonoprazan–pyrogallol [VPZ-GAL]
22,684 μg/mL	5,740 μg/mL	5.74 ±0.13 mg/mL	Vonoprazan–resorcinol [VPZ-RES]
